The chains behind the UniProt entries cited, without tags or fusion partners.
Guanine nucleotide-binding protein G(i) subunit alpha-3 (Rattus norvegicus), P08753, UniProt P08753, whole entry, looked up: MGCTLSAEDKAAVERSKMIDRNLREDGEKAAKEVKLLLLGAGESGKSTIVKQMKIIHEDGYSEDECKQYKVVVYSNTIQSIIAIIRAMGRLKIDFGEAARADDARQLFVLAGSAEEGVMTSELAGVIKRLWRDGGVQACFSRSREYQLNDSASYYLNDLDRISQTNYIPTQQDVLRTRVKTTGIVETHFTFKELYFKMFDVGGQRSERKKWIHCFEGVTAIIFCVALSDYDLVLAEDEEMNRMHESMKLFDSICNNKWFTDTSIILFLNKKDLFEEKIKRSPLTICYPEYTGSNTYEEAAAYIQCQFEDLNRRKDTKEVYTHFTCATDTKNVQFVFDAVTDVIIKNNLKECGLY

# Bioassay records (PubChem BioAssay)
# Sa growth 42C – inhibitors of Staphylococcus aureus growth at 42 °C | S. aureus RN4220 growth, OD600, 20 h; stronger effect = lower value | relative growth, % (concentration not given with the values) | actives 0.53% (n = 170,000) | AID 720641;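 active = relative growth at most 50% at the other temperature and 20+ points below 30 °C, or under 10% at both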
# HCMV NEC inh – inhibitors of HCMV UL50-UL53 nuclear egress complex interaction. AID 1918969. inhibition, % (test concentration not listed). HTRF UL50-UL53 interaction, normalized percent inhibition. actives 0.15% (n = 190,000); in the data active = inhibition above about 27%, passing the limit was not always enough
# GIV Gai3 FP – inhibitors of GIV peptide binding to Galpha-i3, primary screen, biochemical, fluorescence polarization, FITC-GIV GBA peptide, rat Galphai3 | Guanine nucleotide-binding protein G(i) subunit alpha-3 (Rattus norvegicus), P08753 | 90 min; active compounds read low; scaled: aluminum fluoride 0%, vehicle 100% | 210,000 tested, 0.42% active | AID 1224905, 2016 | percent of control (FP), % (no concentration beside the values);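 active means replicate mean at 85% of control or lower, very high polarization wells dropped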;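 further: wells of about 15 µL received 100 nL stock; the first replicate is given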
# GIV-Gai FP conf – GIV-Galpha-i3 inhibition, FP confirmation; fluorescence polarization, mP at 100 µM; actives 38% (n = 580); FITC-GIV peptide binding to Galphai3, fluorescence polarization; stronger effect = lower value; AID 1259350; shares compounds with GIV Gai3 FP;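 active = inhibition score of 15 or more, meaning 100 minus mean polarization as percent of control over three replicates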
# GIV Gai AS conf – confirmation of inhibitors of GIV binding to human Galpha-i3; shares compounds with GIV Gai3 FP; AlphaScreen Galphai3-GIV binding, purified proteins, 90 min; stronger effect = lower value; AlphaScreen counts at 100 µM; actives 39% (n = 580); AID 1259351;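 active = inhibition score at or above a set limit, where the score is 100 minus the three-replicate mean percent of control signal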
# * = called active by the depositor; . = no result. In the library only some 0.7% were active in any assay of this set; here they are far more common.
SMILES,Sa growth 42C,HCMV NEC inh,GIV Gai3 FP,others
Clc1ccc(C(Cn2ccnc2)OCc2csc3c(Cl)cccc23)c(Cl)c1 (stereo not drawn),0.9*,-31.5,108.7,
Clc1ccc(C(Cn2ccnc2)OCc2c(Cl)cccc2Cl)c(Cl)c1 (stereo not drawn),.,-1.6,.,
CCOC(=O)c1ccc2c(c1)C1C(Cl)C(Sc3ccccc3[N+](=O)[O-])CC1C(c1ccc(Cl)cc1)N2 (stereo not drawn),.,.,109.8,
Cc1ccc(OCC(=O)N2CCN(Cc3cc(=O)n4nc(-c5ccccc5)sc4n3)CC2)cc1,.,.,101.4,
O=C(NCC1(N2CCCCC2)CCCCC1)c1ccc2c(=O)n3c(nc2c1)CCCCC3,71.9,-26.5,.,
COc1ccc(N2C(=O)NC(=O)/C(=C\c3cn(CC(=O)Nc4ccccc4)c4ccccc34)C2=O)cc1,.,.,88.7,
CCOc1ccc(N2C(=O)NC(=O)/C(=C/c3cn(CC(=O)Nc4ccccc4)c4ccccc34)C2=O)cc1,.,0.6,-4.9*,
COc1ccc2c(c1)C1(CCN(S(=O)(=O)c3ccc4c(c3)oc(=O)n4C)C1)C(=O)N2C (stereo not drawn),.,.,105.0,
CC(C)Nc1ccc(Nc2ccccc2)cc1,4.5*,-35.9,.,
CC(=O)Nc1ccc(-c2ccccc2)cc1,104.2,-7.5,99.7,
CCCCCCCCCCCCCCCC[N+](C)(C)C,-0.5*,-12.8,.,
CCCCCCCCCCCCCCCCSP(=O)([O-])OCC[N+](C)(C)C,.,-19.2,.,
CC(=O)NC(C(=O)NCc1ccc(C)cc1)C(C)C (stereo not drawn),84.9,-7.8,.,
c1cc(CN2CCNCC2)cs1,78.8,-20.6,.,
C1=C(c2c[nH]c3ccccc23)CCNC1,49.3,-26.3,-22.5*,
O=c1ccc2[nH]cc(C3=CCNCC3)c2[nH]1,.,5.1,106.9,
Cc1ccc2nc(NC(=O)c3c(O)c4ccccc4n(CCC(C)C)c3=O)sc2c1,.,.,108.8,
OC(c1cccs1)(c1cccs1)C1CN2CCC1CC2 (stereo not drawn),102.7,15.4,.,
Cc1ccc(C(O)(c2ccc(C)c(C)c2)C2CN3CCC2CC3)cc1C (stereo not drawn),22.6*,.,97.6,
CCCCC/C=C\C/C=C\C/C=C\C/C=C\CCCC(=O)N[C@H](C)COP(=O)(O)O,.,6.4,.,
CN(C)C(=S)SSC(=S)N(C)C,-0.7*,-26.5,.,
C=CCOC(=O)C1=C(C)NC(=O)C12C(C(=O)OC)=C(N)Oc1ccccc12 (stereo not drawn),94.6,-15.1,103.2,
CN(C)[C@@H]1C(=O)C(C(N)=O)=C(O)[C@@]2(O)C(=O)C3=C(O)c4c(O)ccc(Cl)c4[C@@](C)(O)C3C[C@@H]12 (stereo partly drawn),.,-26.3,.,
CN(C)[C@@H]1C(=O)C(C(N)=O)=C(O)[C@@]2(O)C(=O)C3=C(O)c4c(O)cccc4[C@@](C)(O)[C@H]3C[C@@H]12,-0.1*,-71.2,96.3,
CCC1(C)CC(CCNCc2ccc(OC)cc2)(c2ccc(OC)cc2)CCO1 (stereo not drawn),.,.,104.6,
CC12CC[C@H]3[C@@H](CCC4(O)C[C@H](O)CCC34/C=N\NC(=O)c3ccccc3NC(=O)c3ccccc3Cl)C1(O)CCC2C1=CC(=O)OC1 (stereo partly drawn),.,.,117.0,
CN1CCc2[nH]c(=S)c(C#N)c(-c3ccccc3)c2C1,88.4,-30.4,.,
CN1CCc2c(C#N)c(N)n(N)c(=S)c2C1,96.8,-67.4,-103.0*,
O=C(CNC(=S)N1CC2CC(C1)c1cccc(=O)n1C2)N1CCCC1 (stereo not drawn),96.5,-24.1,100.5,
CCOC(=O)COc1ccc(/C=C2\C(=O)NC(=S)N(c3ccc(OC)cc3)C2=O)cc1OC,.,-32.3,102.3,
COc1cc(C=C2C(=O)NC(=O)NC2=O)ccc1OS(=O)(=O)c1ccccc1,.,60.2*,89.5,
COc1ccc(C=C2C(=O)NC(=O)NC2=O)cc1,82.4,.,97.4,
CCOC(=O)CSCCOc1ccc(C=C2C(=O)NC(=O)NC2=O)cc1OC,.,60.1*,98.4,
NCCc1ccc2c(c1)OCO2,99.8,-10.9,.,
CCN1CCN(Cc2cccc3cccnc23)CC1,92.6,-19.1,.,
CCN1C(=O)NC(=O)/C(=C\c2cn(CC(=O)O)c3ccccc23)C1=O,90.8,-39.0,110.2,
COC(=O)Cn1cc(C=C2C(=O)N(C)C(=O)N(C)C2=O)c2ccccc21,120.0,-14.9,-2.1*,
Cc1ccc2c(c1)C1CN(C)CCC1N2Sc1ccc(Cl)cc1 (stereo not drawn),-1.3*,1.7,.,
Cc1ccc2c(c1)C1CN(C)CCC1N2C(=O)C1CC1 (stereo not drawn),.,.,113.3,
CCN1CCN(Cc2ccc(N)cc2)CC1,146.9,-1.0,.,
N#CC(C#N)=Cc1ccc(-c2ccccc2)o1,96.4,-18.9,-0.4*,
Cc1ccc(C=C(C#N)C#N)o1,74.0,-65.4,103.7,
C[C@]12CCC(=O)C=C1CC=C1C2CC[C@@]2(C)C1CC[C@]2(O)C#N (stereo partly drawn),.,.,98.5,
CCOc1cc(/C=C2\C(O)C3CCN2CC3)cc(Cl)c1OCC (stereo not drawn),97.0,-26.0,102.1,
CN1CCc2cc3c(c4c2C1Cc1ccccc1-4)OCO3 (stereo not drawn),0.1*,-9.3,86.9,

# In the list so far, these have a thiophene ring, fused or not:
SMILES,Sa growth 42C,HCMV NEC inh,GIV Gai3 FP,others
Clc1ccc(C(Cn2ccnc2)OCc2csc3c(Cl)cccc23)c(Cl)c1 (stereo not drawn),0.9*,-31.5,108.7,
c1cc(CN2CCNCC2)cs1,78.8,-20.6,.,
OC(c1cccs1)(c1cccs1)C1CN2CCC1CC2 (stereo not drawn),102.7,15.4,.,

# (listing goes on)
SMILES,Sa growth 42C,HCMV NEC inh,GIV Gai3 FP,others
CN1CCc2cc(O)cc3c2[C@H]1Cc1ccc(O)c(O)c1-3,.,-38.0,109.5,
O/N=C1/C(=C\c2cccc(O)c2)N2CCC1CC2,.,.,107.5,
CN1C(=O)[C@]23CC4=CC=C[C@H](O)[C@H]4N2C(=O)[C@@]1(CO)SS3,.,54.9*,.,
Cn1c(=O)c2ncnnc2n(C)c1=O,5.9*,12.1,77.3*,GIV-Gai FP conf=58.4*;GIV Gai AS conf=35976
OOCCC/C=C/c1ccccc1,.,-15.7,.,
N#Cc1cc2c(nc1SCc1ccc([N+](=O)[O-])cc1)C1CCN2CC1,.,.,105.2,
O=C1NC(=O)N(Cc2ccccc2)C(=O)/C1=C\c1ccccc1,87.6,.,15.0*,GIV-Gai FP conf=30.5*;GIV Gai AS conf=14998*
O=C1NC(=O)N(Cc2ccccc2)C(=O)/C1=C/c1ccc(O)cc1,108.0,31.0,111.0,
COc1cc(CNC(=O)CCCCCCC(C)C)c(I)cc1O,.,-22.7,.,
CN1C(=O)NC(=O)/C(=C/c2ccco2)C1=O,98.0,-2.1,99.6,
O=C1NC(=S)NC(=O)C1=Cc1ccco1,85.2,2.2,72.9*,GIV-Gai FP conf=57.1*;GIV Gai AS conf=5695*
N#CC1=C(N)Oc2c(c(=O)oc3ccccc23)C1c1ccc(N2CCOCC2)c([N+](=O)[O-])c1 (stereo not drawn),.,.,108.7,

# 3 entries drawn at random from the list so far:
SMILES,Sa growth 42C,HCMV NEC inh,GIV Gai3 FP,others
CN1C(=O)[C@]23CC4=CC=C[C@H](O)[C@H]4N2C(=O)[C@@]1(CO)SS3,.,54.9*,.,
Cn1c(=O)c2ncnnc2n(C)c1=O,5.9*,12.1,77.3*,GIV-Gai FP conf=58.4*;GIV Gai AS conf=35976
CN1CCc2cc(O)cc3c2[C@H]1Cc1ccc(O)c(O)c1-3,.,-38.0,109.5,
